Here are results for nine compounds from ChEMBL document CHEMBL3751845, “Synthesis, molecular docking and biological evaluation of N,N-disubstituted 2-aminothiazolines as a new class of butyrylcholinesterase and carboxylesterase inhibitors” (Bioorg Med Chem, 2016).

Amino acid sequences for entries named in this document (tags omitted). Residues count along the entry.
UniProt Q29550, 19-566 limits assumed: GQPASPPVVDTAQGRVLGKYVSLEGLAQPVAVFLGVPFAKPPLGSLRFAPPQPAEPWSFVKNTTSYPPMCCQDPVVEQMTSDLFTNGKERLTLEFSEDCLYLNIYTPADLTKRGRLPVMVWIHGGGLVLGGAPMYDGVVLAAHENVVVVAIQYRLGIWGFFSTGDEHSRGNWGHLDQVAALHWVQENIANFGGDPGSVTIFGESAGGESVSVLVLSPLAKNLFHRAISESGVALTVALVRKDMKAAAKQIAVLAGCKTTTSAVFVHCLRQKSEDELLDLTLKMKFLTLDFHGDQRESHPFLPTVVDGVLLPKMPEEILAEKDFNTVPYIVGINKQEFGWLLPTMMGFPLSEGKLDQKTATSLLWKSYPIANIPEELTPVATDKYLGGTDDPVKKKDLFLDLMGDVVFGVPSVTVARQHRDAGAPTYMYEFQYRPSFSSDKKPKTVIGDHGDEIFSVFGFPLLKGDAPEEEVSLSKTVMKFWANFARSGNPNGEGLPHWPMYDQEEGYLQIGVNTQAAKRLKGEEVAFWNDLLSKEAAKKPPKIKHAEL

This experiment deals with Liver carboxylesterase (Sus scrofa, UniProt Q29550). Put plainly: Inhibition of porcine liver carboxylesterase using 4-nitrophenol acetate as substrate by spectrophotometric analysis.
Take `ICC1CN=C(Nc2ccccc2)S1` (centres undefined): the 50% inhibitory concentration (IC50) was > 100 µM.

As to `BrCC1CN=C(Nc2ccccc2)S1` (centres undefined), the IC50 is > 100 µM. As to `BrCC1CN=C(NCc2ccccc2)S1` (centres undefined), the half-inhibitory concentration (IC50) was > 100 µM. As for `BrCC1CN=C(Nc2ccccn2)S1` (centres undefined), the IC50 was found to be 93 µM.

For `I.NC1=NCC(CI)S1` (centres undefined), the 50% inhibitory concentration (IC50) entry was “Not Active”.

`NC1=NCC(CBr)S1` (centres undefined): the 50% inhibitory concentration (IC50) is > 100 µM.

For `Cc1cccc(NC2=NCC(CI)S2)n1.I` (centres undefined), the 50% inhibitory concentration (IC50) result is “Not Active”.

On to `ICC1CN=C(NCc2ccccc2)S1` (centres undefined), for which half-maximal inhibition (IC50) required 17 µM. In the case of `ICC1CN=C(Nc2ccc3c(c2)OCCO3)S1` (centres undefined), the 50% inhibitory concentration (IC50) is > 100 µM.
